Data published in PubChem BioAssay (NCI).
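Where inhibition never reached the appropriate level, the endpoint shown equals the highest concentration tested. Otherwise, values were interpolated linearly from a five-concentration, 48-hour dose response in 96-well plates. GI50 is the concentration that inhibits growth by half. TGI marks complete inhibition of growth.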

How the values were obtained:
Test in all cases: NCI tumour cell line growth inhibition, 48 h
HCT-116 colon = test system: HCT-116 colon
OVCAR-4 ovarian = test system: OVCAR-4 ovarian
COLO 205 colon = test system: COLO 205 colon
UO-31 renal = test system: UO-31 renal
HT29 colon = test system: HT29 colon
SNB-19 CNS = test system: SNB-19 CNS
SN12C renal = test system: SN12C renal
HL-60(TB) leukemia = test system: HL-60(TB) leukemia
HOP-62 NSCLC = test system: HOP-62 NSCLC
PC-3 prostate = test system: PC-3 prostate
OVCAR-3 ovarian = test system: OVCAR-3 ovarian
A549 NSCLC = test system: A549 NSCLC
K-562 leukemia = test system: K-562 leukemia
M14 melanoma = test system: M14 melanoma
SW-620 colon = test system: SW-620 colon
U251 CNS = test system: U251 CNS
SK-MEL-2 melanoma = test system: SK-MEL-2 melanoma
IGROV1 ovarian = test system: IGROV1 ovarian
MALME-3M melanoma = test system: MALME-3M melanoma
A498 renal = test system: A498 renal
EKVX NSCLC = test system: EKVX NSCLC
SK-MEL-5 melanoma = test system: SK-MEL-5 melanoma
OVCAR-8 ovarian = test system: OVCAR-8 ovarian
NCI-H522 lung = test system: NCI-H522 lung
SK-OV-3 ovarian = test system: SK-OV-3 ovarian
SF-539 CNS = test system: SF-539 CNS
SR leukemia = test system: SR leukemia
NCI-H226 lung = test system: NCI-H226 lung
NCI/ADR-RES ovarian = test system: NCI/ADR-RES ovarian
SK-MEL-28 melanoma = test system: SK-MEL-28 melanoma
RPMI-8226 leukemia = test system: RPMI-8226 leukemia
HCC-2998 colon = test system: HCC-2998 colon
SF-268 CNS = test system: SF-268 CNS
MDA-MB-231 breast = test system: MDA-MB-231 breast
786-0 renal = test system: 786-0 renal
NCI-H23 lung = test system: NCI-H23 lung
HCT-15 colon = test system: HCT-15 colon
UACC-257 melanoma = test system: UACC-257 melanoma
NCI-H322M lung = test system: NCI-H322M lung
LOX IMVI melanoma = test system: LOX IMVI melanoma
BT-549 breast = test system: BT-549 breast
UACC-62 melanoma = test system: UACC-62 melanoma
DU-145 prostate = test system: DU-145 prostate
SNB-75 CNS = test system: SNB-75 CNS
SF-295 CNS = test system: SF-295 CNS
MOLT-4 leukemia = test system: MOLT-4 leukemia
HOP-92 NSCLC = test system: HOP-92 NSCLC
CCRF-CEM leukemia = test system: CCRF-CEM leukemia
ACHN renal = test system: ACHN renal
NCI-H460 lung = test system: NCI-H460 lung
MDA-MB-435 = test system: MDA-MB-435
KM12 colon = test system: KM12 colon
TK-10 renal = test system: TK-10 renal
CAKI-1 renal = test system: CAKI-1 renal
MCF7 breast = test system: MCF7 breast
OVCAR-5 ovarian = test system: OVCAR-5 ovarian
RXF 393 renal = test system: RXF 393 renal
T-47D breast = test system: T-47D breast
HS 578T breast = test system: HS 578T breast

## C[As](C)SCC(O)CO (stereo not drawn)
HCT-116 colon
  GI50: 7.26 µM
  TGI: 20.9 µM
OVCAR-4 ovarian
  GI50: 9.17 µM
  TGI: 20.1 µM
COLO 205 colon
  GI50: 1.27 µM
  TGI: 7.59 µM
UO-31 renal
  GI50: 2.52 µM
  TGI: 33.5 µM
HT29 colon
  GI50: 2.74 µM
  TGI: 35 µM
SNB-19 CNS
  GI50: 20.1 µM
  TGI: 45.6 µM
SN12C renal
  GI50: 1.01 µM
  TGI: 5.31 µM
HL-60(TB) leukemia
  GI50: 1.84 µM
  TGI: 18.1 µM
HOP-62 NSCLC
  GI50: 6.96 µM
  TGI: 19.9 µM
PC-3 prostate
  GI50: 1.85 µM
  TGI: 13.2 µM
OVCAR-3 ovarian
  GI50: 0.908 µM
  TGI: 7.97 µM
A549 NSCLC
  GI50: 6.87 µM
  TGI: 32.3 µM
K-562 leukemia
  GI50: 0.671 µM
  TGI: 27.6 µM
M14 melanoma
  GI50: 0.962 µM
  TGI: 6.77 µM
SW-620 colon
  GI50: 1.83 µM
  TGI: 15.7 µM
U251 CNS
  GI50: 9.39 µM
  TGI: 65.1 µM
SK-MEL-2 melanoma
  GI50: 2.14 µM
  TGI: 41.6 µM
IGROV1 ovarian
  GI50: 3.73 µM
  TGI: 30 µM
MALME-3M melanoma
  GI50: 1.01 µM
  TGI: 5.92 µM
A498 renal
  GI50: 1.66 µM
  TGI: 10.9 µM
EKVX NSCLC
  GI50: 8.12 µM
  TGI: 16.6 µM
SK-MEL-5 melanoma
  GI50: 3.39 µM
  TGI: 7.2 µM
OVCAR-8 ovarian
  GI50: 4.05 µM
  TGI: 11.8 µM
NCI-H522 lung
  GI50: 1.32 µM
  TGI: 35.6 µM
SK-OV-3 ovarian
  GI50: 6.62 µM
  TGI: 35.1 µM
SF-539 CNS
  GI50: 4.11 µM
  TGI: 9.76 µM
SR leukemia
  GI50: 0.361 µM
  TGI: > 100 µM
NCI-H226 lung
  GI50: 6.69 µM
  TGI: 19.1 µM
NCI/ADR-RES ovarian
  GI50: 3.26 µM
  TGI: 24 µM
SK-MEL-28 melanoma
  GI50: 2.4 µM
  TGI: 6.86 µM
RPMI-8226 leukemia
  GI50: 0.476 µM
  TGI: 1.17 µM
HCC-2998 colon
  GI50: 11.4 µM
  TGI: 18.2 µM
SF-268 CNS
  GI50: 5.43 µM
  TGI: 18.4 µM
MDA-MB-231 breast
  GI50: 2.7 µM
  TGI: 7.02 µM
786-0 renal
  GI50: 0.963 µM
  TGI: 5.53 µM
NCI-H23 lung
  GI50: 0.781 µM
  TGI: 4.14 µM
HCT-15 colon
  GI50: 1.47 µM
  TGI: 37.1 µM
UACC-257 melanoma
  GI50: 3.81 µM
  TGI: 16 µM
NCI-H322M lung
  GI50: 16.3 µM
  TGI: 32.3 µM
LOX IMVI melanoma
  GI50: 3.41 µM
  TGI: 34.7 µM
BT-549 breast
  GI50: 1.34 µM
  TGI: 7.76 µM
UACC-62 melanoma
  GI50: 2.71 µM
  TGI: 16.1 µM
DU-145 prostate
  GI50: 1.26 µM
  TGI: 8.09 µM
SNB-75 CNS
  GI50: 12.6 µM
  TGI: 39.1 µM
SF-295 CNS
  GI50: 8.86 µM
  TGI: 24.8 µM
MOLT-4 leukemia
  GI50: 1.3 µM
  TGI: 20.7 µM
HOP-92 NSCLC
  GI50: 3.01 µM
  TGI: 8.5 µM
CCRF-CEM leukemia
  GI50: 0.761 µM
  TGI: 5.42 µM
ACHN renal
  GI50: 2.56 µM
  TGI: 25.6 µM
NCI-H460 lung
  GI50: 9.38 µM
  TGI: 45.3 µM
MDA-MB-435
  GI50: 1.05 µM
  TGI: 8.85 µM
KM12 colon
  GI50: 9.61 µM
  TGI: 27.4 µM
TK-10 renal
  GI50: 1.39 µM
  TGI: 7.67 µM
CAKI-1 renal
  GI50: 1.16 µM
  TGI: 10.1 µM
MCF7 breast
  GI50: 1.44 µM
  TGI: 23.7 µM
OVCAR-5 ovarian
  GI50: 2.94 µM
  TGI: 13.6 µM
RXF 393 renal
  GI50: 1.93 µM
  TGI: 15.3 µM
T-47D breast
  GI50: 3.69 µM
  TGI: 15 µM
HS 578T breast
  GI50: 2.48 µM
  TGI: 14.1 µM
